# Patent US11497765B1, “Thioctamer expedites wound healing” (King Abdulaziz University, priority 2022, dated 2022)
# Assay: Thioctamer zeta potential and particle size evaluation (Zetasizer Nano ZSP)
# Assay type: physicochemical
# Procedure: Thioctamer was prepared by conjugation of GA and TA in a 1:1 molar ratio. TA was solvated in deionized water (with added of triethanolamine in a 1:1 molar ratio with the amount of TA). GA was dissolved separately in deionized water. The two aqueous solutions were mixed and then vortexed for 60 sec. The prepared thioctamer was assessed for zeta potential and particle size utilizing a Zetasizer Nano ZSP (Malvern Instruments Ltd., Malvern, UK).
substance,measurement,value
L-alanine compound with L-tyrosine compound with L-lysine compound with L-glutamic acid acetic acid [GA],zeta potential,23±4.2 mV
